# Yeast mating assay 2: variants of the scFv Ab-95

Target: peptide PDVDLGDISGINAS, taken from heptad repeat 2 (HR2) of SARS-CoV-2 spike.

Ab-95 is the parent antibody, in scFv form: VH, then three GGGGS repeats, then VL. The heavy chain is unchanged in all variants.
VH: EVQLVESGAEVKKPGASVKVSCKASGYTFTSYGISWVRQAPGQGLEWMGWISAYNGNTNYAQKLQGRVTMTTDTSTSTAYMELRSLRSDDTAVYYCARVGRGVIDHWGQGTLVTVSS
VL: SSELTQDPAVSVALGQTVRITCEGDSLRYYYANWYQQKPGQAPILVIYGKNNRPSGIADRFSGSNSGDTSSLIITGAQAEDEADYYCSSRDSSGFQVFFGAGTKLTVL

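Phage display of a naive human antibody library on the peptide gave the parent. Library AAYL52 holds single substitutions and randomly drawn double and triple substitutions in the CDRs. The assay is AlphaSeq: two haploid yeast populations carry antibody and antigen on their surface. After mating in shaken culture at 30 °C for 16 h, diploids were selected and their barcode pairs sequenced. Scores were corrected for input abundance and mapped to Kd with protein pairs of known affinity run in the same pool. Each pool was mated in three replicate cultures.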

Positions count from residue 1 of the parent VL; D25A puts A in place of D. Numbers give log10(Kd / nM), so 0 is 1 nM and 3 is 1 µM. Smaller is tighter. "ND" means that the variant was in the library but no mating with the target was seen in that replicate; the authors take this as a sign of poor binding, and no number exists.

changes,"replicates, log10 nM",control signals
D25A+K50F+S55T,3.37 / 3.60 / 3.08,4/9 (4.29)
D25W+S92C+F95S,3.49 / 3.43 / 4.21,3/9 (3.98)
D25I+N33Q+S88A,3.00 / 4.50 / ND,2/9 (3.49)
A32R+P54R+R90V,5.23 / ND / ND,2/9 (3.71)
N33T+G49M+P54I,5.29 / ND / ND,2/9 (3.92)
L27M+R53K+S93V,ND / 4.28 / ND,0/9
K50Q+R90H+D91K,ND / ND / ND,0/9
R28A+Y29D+Y31C,2.34 / 2.17 / 1.88,4/9 (4.27)
D25E+Y29E+S88W,2.61 / 2.53 / 1.43,1/9 (3.35)
R53G+R90F+V97H,ND / ND / ND,1/9 (4.92)
R53Q+P54H+G94E,3.48 / 3.99 / 3.65,4/9 (3.83)
S88V+S89I+S92I,4.92 / 2.87 / 3.46,4/9 (4.05)
G49F+K50C,4.62 / ND / 3.74,3/9 (3.97)
Y29R+Y31C+S55V,1.94 / 2.12 / 1.89,3/9 (3.91)
G24P+N52Q+P54I,ND / 3.88 / ND,2/9 (4.07)
K50L+S55D+S92F,3.05 / ND / ND,1/9 (3.80)
Y31V+N51W+D91E,ND / ND / ND,0/9
A32F+R90P+Q96K,ND / ND / ND,1/9 (3.67)
R28G+S89W+S93M,2.56 / 2.96 / 2.93,4/9 (3.62)
N33L+S93C+G94S,3.99 / ND / ND,5/9 (4.25)
K50M+N51A,3.36 / 3.63 / ND,3/9 (3.21)
S26W+L27S+Y30T,2.62 / 2.74 / 2.06,5/9 (4.06)
G94M+F95K,3.43 / 3.65 / 2.64,1/9 (3.89)
Y30T+G49F+S89W,ND / ND / ND,0/9
R28S+P54E+S93N,3.62 / 3.29 / ND,1/9 (4.01)
R53T+G94F+V97F,3.91 / ND / ND,0/9
R53H+S93N+Q96P,2.75 / 4.47 / ND,2/9 (4.08)
N52S+R53S+V97Y,2.70 / 3.25 / ND,2/9 (3.62)
E23V+L27P+R90D,5.29 / ND / ND,1/9 (2.23)
E23H+R53I+R90D,3.18 / 3.01 / 3.48,1/9 (3.32)
Y29T+N52M+S93N,ND / ND / ND,0/9
S26D+R28V,2.66 / 2.64 / 1.67,1/9 (4.26)

Top 5 of the variants detected in all replicates, tightest first:

changes	replicates, log10 nM	control signals
Y29R+Y31C+S55V	1.94 / 2.12 / 1.89	3/9 (3.91)
R28A+Y29D+Y31C	2.34 / 2.17 / 1.88	4/9 (4.27)
D25E+Y29E+S88W	2.61 / 2.53 / 1.43	1/9 (3.35)
S26D+R28V	2.66 / 2.64 / 1.67	1/9 (4.26)
S26W+L27S+Y30T	2.62 / 2.74 / 2.06	5/9 (4.06)

Parent in this assay: reference entry 2.31, copy in this library 2.25. Nonspecific signal, from three strains lacking the peptide, appeared in 28% of pairings of library AAYL52, centred on 3.91 (5% of these signals below 2.90); values are not corrected for it. For each scFv, signals with the empty controls are counted beside the result, with their mean in brackets.

Values reported by Engelhart et al. 2022, doi:10.1038/s41597-022-01779-4 (FLAb copy).